Assay results taken from US5439891A (priority 1993, dated 1995).

Compound: O=C(/C=C/C=C/c1ccc2c(c1)OCO2)N1CCCCC1 [Piperine, (E, E) 1-[5-(1,3-benzodioxyl-5-yl)-1-oxo-2,4-pentadenyl] piperidine]
- effect on bioavailability of synthetic antidiabetic drugs such as tolbutamide: no effect
